By UniProt entry, the sequences of proteins in these tests, tags left out.
UniProt Q99685, whole entry: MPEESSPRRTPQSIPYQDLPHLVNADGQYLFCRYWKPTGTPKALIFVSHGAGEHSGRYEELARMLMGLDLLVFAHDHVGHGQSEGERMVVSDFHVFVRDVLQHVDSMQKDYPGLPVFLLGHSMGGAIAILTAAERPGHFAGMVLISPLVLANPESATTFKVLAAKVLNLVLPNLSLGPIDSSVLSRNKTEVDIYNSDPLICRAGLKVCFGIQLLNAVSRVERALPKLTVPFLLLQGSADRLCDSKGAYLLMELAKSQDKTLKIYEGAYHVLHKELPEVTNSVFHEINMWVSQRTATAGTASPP

According to publication PMC10675604, “Cetirizine and Levetiracetam as Inhibitors of Monoacylglycerol Lipase: Investigating Their Repurposing Potential as Novel Osteoarthritic Pain Therapies” (Pharmaceuticals, 2023):

Biological target: T1, monoacylglycerol lipase (MAGL) (Homo sapiens, UniProt Q99685)
T1 construct: gene MGLL
Assay: biochemical

`O=C(Oc1ccc([N+](=O)[O-])cc1)N1CCN(Cc2cccc(Oc3ccccc3)c2)CC1` [JZL 195] was tested, and the IC50 was 8 nM.
